Laboratory results reported in ChEMBL document CHEMBL1687783, “Prevalence and dissemination of oqxAB in Escherichia coli isolates from animals, farmworkers, and the environment” (2010).

What was measured:
[1] = tested on: Escherichia coli; details: DH5[alpha]
[2] = tested on: Escherichia coli; details: C600

In the case of GENTAMICIN, the MIC [1] is reported as 0.5 µg/mL and the MIC [2] is reported as 0.5 µg/mL.
